From patent publication US9487483B2, “Complement pathway modulators and uses thereof” (priority 2012, dated 2016)

The chains behind the UniProt entries cited, without tags or fusion partners. Residues count along the entry.
UniProt P00746, 26-253: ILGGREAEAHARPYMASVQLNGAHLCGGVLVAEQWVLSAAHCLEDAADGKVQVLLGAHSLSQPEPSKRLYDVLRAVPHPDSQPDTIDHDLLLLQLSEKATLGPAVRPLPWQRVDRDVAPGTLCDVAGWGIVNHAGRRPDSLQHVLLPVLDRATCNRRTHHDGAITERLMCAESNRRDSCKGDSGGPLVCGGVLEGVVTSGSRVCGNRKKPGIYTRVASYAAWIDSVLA

Molecular target: Recombinant human factor D (Homo sapiens (Human), UniProt P00746)
Assay: biochemical
Type: biochemical
Conditions: substrate Z-Lys-thiobenzyl, fluorescence readout
[1] = IC50, Factor D inhibition data using Method 1
[2] = Factor D inhibition data using Method 1, read-out: IC50

Compound | pIC50 [1] | pIC50 [2]
NC(=O)n1cc(NC(=O)N2[C@@H]3C[C@@H]3C[C@H]2C(=O)NC2CCCC(OCC(F)(F)F)C2)c2ccccc21 (single isomer, unassigned) [Example 17] | 6.16 | 
NC(=O)n1cc(NC(=O)N2[C@@H]3C[C@@H]3C[C@H]2C(=O)NC2CCCC(OCC(F)(F)F)C2)c2ccccc21 (single isomer, unassigned) [Example 18] | 5.77 | 
NC(=O)n1cc(NC(=O)N2[C@@H]3C[C@@H]3C[C@H]2C(=O)NC2CCCC(OCC(F)(F)F)C2)c2ccccc21 (single isomer, unassigned) [Example 19] | 6.10 | 
NC(=O)n1cc(NC(=O)N2[C@@H]3C[C@@H]3C[C@H]2C(=O)NC2CCCC(OCC(F)(F)F)C2)c2ccccc21 (single isomer, unassigned) [Example 20] | 5.91 | 
CC(=O)c1nn(CC(=O)N2[C@@H]3C[C@@H]3C[C@H]2C(=O)NC2CCCCC2(F)F)c2ccc(OCc3ncccn3)cc12 (single isomer, unassigned) [Example 36] | 6.13 | 
CC(=O)c1nn(CC(=O)N2[C@@H]3C[C@@H]3C[C@H]2C(=O)NC2CCCCC2(F)F)c2ccc(OCc3ncccn3)cc12 (single isomer, unassigned) [Example 37] | 7.62 | 
CC1CCC(NC(=O)[C@@H]2C[C@H]3C[C@H]3N2C(=O)Cn2nc(C(N)=O)c3ccccc32)C1 (single isomer, unassigned) [Example 77] | 6.60 | 
CC1CCC(NC(=O)[C@@H]2C[C@H]3C[C@H]3N2C(=O)Cn2nc(C(N)=O)c3ccccc32)C1 (single isomer, unassigned) [Example 78] | 6.98 | 
CC1CCC(NC(=O)[C@@H]2C[C@H]3C[C@H]3N2C(=O)Cn2nc(C(N)=O)c3ccccc32)C1 (single isomer, unassigned) [Example 79] | 5.62 | 
CC1CCC(NC(=O)[C@@H]2C[C@H]3C[C@H]3N2C(=O)Cn2nc(C(N)=O)c3ccccc32)C1 (single isomer, unassigned) [Example 80] | 6.33 | 
CO[C@@H]1CC[C@@H](NC(=O)[C@@H]2C[C@H]3C[C@H]3N2C(=O)Cn2nc(C(C)=O)c3cc(OCc4ncccn4)ccc32)C1 [Example 99, (1R,3S,5R)-2-{2-[3-Acetyl-5-(pyrimidin-2-ylmethoxy)-indazol-1-yl]-acetyl}-2-aza-bicyclo[3.1.0]hexane-3-carboxylic acid ((1R,3R)-3-methoxy-cyclopentyl)-amide] |  | 6.36
CO[C@H]1CC[C@H](NC(=O)[C@@H]2C[C@H]3C[C@H]3N2C(=O)Cn2nc(C(C)=O)c3cc(OCc4ncccn4)ccc32)C1 [Example 100, (1R,3S,5R)-2-{2-[3-Acetyl-5-(pyrimidin-2-ylmethoxy)-indazol-1-yl]-acetyl}-2-aza-bicyclo[3.1.0]hexane-3-carboxylic acid ((1S,3S)-3-methoxy-cyclopentyl)-amide] |  | 6.03

pIC50: −log10 of the molar value. Like-named read-outs stand apart in the source and are kept apart here.
